The chains behind the UniProt entries cited, without tags or fusion partners.
UniProt P42336, whole entry, looked up: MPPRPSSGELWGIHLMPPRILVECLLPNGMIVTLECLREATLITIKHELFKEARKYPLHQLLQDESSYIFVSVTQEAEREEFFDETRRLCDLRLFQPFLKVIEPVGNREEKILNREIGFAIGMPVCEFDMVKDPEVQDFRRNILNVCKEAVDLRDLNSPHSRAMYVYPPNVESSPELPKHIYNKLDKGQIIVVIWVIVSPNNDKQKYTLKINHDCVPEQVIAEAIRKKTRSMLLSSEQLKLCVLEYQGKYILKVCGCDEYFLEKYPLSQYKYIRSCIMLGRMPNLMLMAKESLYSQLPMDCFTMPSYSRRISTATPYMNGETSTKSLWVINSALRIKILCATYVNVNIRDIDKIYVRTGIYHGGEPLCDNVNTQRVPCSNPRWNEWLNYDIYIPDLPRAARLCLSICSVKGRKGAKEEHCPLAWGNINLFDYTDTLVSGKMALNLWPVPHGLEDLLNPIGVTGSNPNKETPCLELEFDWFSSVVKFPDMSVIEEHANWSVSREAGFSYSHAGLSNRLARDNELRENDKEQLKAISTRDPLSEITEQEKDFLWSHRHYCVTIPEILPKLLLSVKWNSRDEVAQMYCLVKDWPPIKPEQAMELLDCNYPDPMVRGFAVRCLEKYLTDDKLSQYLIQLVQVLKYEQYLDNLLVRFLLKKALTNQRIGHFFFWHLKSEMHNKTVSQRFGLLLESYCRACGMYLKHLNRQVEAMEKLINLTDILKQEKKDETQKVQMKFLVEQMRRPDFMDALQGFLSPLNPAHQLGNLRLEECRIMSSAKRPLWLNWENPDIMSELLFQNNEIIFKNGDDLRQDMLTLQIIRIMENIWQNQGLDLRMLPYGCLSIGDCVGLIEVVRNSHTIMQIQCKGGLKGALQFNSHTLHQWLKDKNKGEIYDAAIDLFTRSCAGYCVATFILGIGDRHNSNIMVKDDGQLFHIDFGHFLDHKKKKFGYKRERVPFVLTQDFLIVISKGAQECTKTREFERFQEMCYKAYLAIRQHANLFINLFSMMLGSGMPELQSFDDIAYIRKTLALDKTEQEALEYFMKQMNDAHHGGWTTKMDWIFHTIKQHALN

In the Kinase Knowledgebase extract (Sharma et al. 2016):

What follows are compounds tested against PIK3CA (human) (UniProt P42336) (assay: Cell-Based Assay). Conditions: bt20.

| SMILES | IC50 |
| --- | --- |
| CNC(=O)N1CCC(n2c(=O)n(C)c3cnc4ccc(-c5cnn(C)c5)nc4c32)CC1 | 79.3 nM |
| COc1ncc(-c2ccc3ncc4c(c3n2)n([C@H]2CC[C@H](O)CC2)c(=O)n4C)cn1 | 1000 nM |
| COc1ccc(-c2ccc3ncc4c(c3n2)n(C2CCN(C(=O)CO)CC2)c(=O)n4C)cc1 | 17.4 nM |
| CN1CCC(n2c(=O)n(C)c3cnc4ccc(-c5ccc(N(C)C)nc5)nc4c32)CC1 | 19.4 nM |
